{
  "source": "paper PMC9509318",
  "about": "(2022)",
  "biological_target": "T1, Pfs48/45 full-length ectodomain (Plasmodium falciparum, UniProt Q8I6T1 27-427)",
  "T1 chain": "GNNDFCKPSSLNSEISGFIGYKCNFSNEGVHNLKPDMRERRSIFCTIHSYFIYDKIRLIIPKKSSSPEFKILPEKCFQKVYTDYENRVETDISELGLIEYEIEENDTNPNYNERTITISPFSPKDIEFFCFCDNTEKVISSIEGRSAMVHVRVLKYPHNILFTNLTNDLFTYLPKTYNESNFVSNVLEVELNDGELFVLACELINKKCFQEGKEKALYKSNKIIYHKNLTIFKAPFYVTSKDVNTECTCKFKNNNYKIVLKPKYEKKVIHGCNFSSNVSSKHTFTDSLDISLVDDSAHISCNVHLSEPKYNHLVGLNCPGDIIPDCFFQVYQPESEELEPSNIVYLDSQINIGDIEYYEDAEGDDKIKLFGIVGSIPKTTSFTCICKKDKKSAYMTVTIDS",
  "test": "SPR",
  "data": [
    {"binder": "85RF45.1 monoclonal antibody (antibody, V domains shown) VH: EVQLVESGGGLLQPGRSLKLSCVASGFTFNNYWMSWIRQAPGKGLEWIASISNIGGTIYYPDSVKGRFTISRDSAQNTLYLQMNSLRSEDTATYYCTRDLRMSDYFDYWGQGVMVTVSS VL: QFVLSQPNSVSTNLGSTVKLSCKRSTGNIGSNYVSWYQHHEGRSPTTMIYRDDQRPDGVPDRFSGSIDRSSNSALLTIDNVQTEDEAAYFCHSYSTGMYIFGGGTKLTVL", "values": [
      {"measurement": "koff", "value": 0.00186, "unit": "s⁻¹"}
    ]}
  ]
}
